Read-outs that look alike come from different tables or passages of the source. Some compounds may have been tested in ways that are not shown here.

For data set [1] the following is noted: cited from earlier work.
For data set [2] the following is noted: % of fentanyl; cited from earlier work.
Data set [3] is described as follows: Solubility recrystallization study (drug solubility in polymer). The following applies: for Solubility assessed by recrystallization study: 4 weeks 40° C./75% RH.
The conditions of data set [4]: 1 mcg/hr sufentanil, osmotic pump; cited from earlier work.

Take `CCC(=O)N(c1ccccc1)C1(COC)CCN(CCc2cccs2)CC1`: the “Mean Plasma Concentration” value in data set [1] (i.v. infusion 0.10 microg/kg/h, 24 h, postoperative major abdominal or urological surgery (Menigaux et al. '01)) was 0.11 ng/mL; in data set [1] (i.v. infusion 0.11 microg/kg/h, 24 h, postoperative major abdominal surgery (Geller et al. '93)) it was around 0.03 to 0.06 ng/mL; in data set [1] (i.v. infusion 0.12 microg/kg/h, 17 h, postoperative elective major gynecological surgery (Lehmann et al. '91)), 0.035 ng/mL; in data set [1] (i.v. infusion 0.15 microg/kg/h, 6 h, normal human volunteers (Fisher et al. '03)), “[~110] pg/ml”. The “solubility in skin relative to fentanyl” value in data set [2] is 25-50%. For the same compound, the “saturation solubility within patch material” value in data set [3] (PIB matrix material) is on record as “about 2.5 % (w/w)”. Moreover, the “Solubility assessed by recrystallization study” value in data set [3] (in Bio-PSA 7-4602, silicone elastomer) is 7 ± 1.5%; in data set [3] (in Durotak 387-2516, polyacrylate copolymer) it was 7 ± 1.5%; in data set [3] (in Oppanol B100 and B10, polyisobutylene), 2.5 ± 0.3%. The “average plasma concentration at steady state delivery of 1 mcg/hr” value in data set [4] is on record as “about 15.2 pg/ml”.

The record behind these values is US20090130190A1.
